Protein sequences, listed by entry. Tags and fused reporters are not part of them.
UniProt P33261, whole entry: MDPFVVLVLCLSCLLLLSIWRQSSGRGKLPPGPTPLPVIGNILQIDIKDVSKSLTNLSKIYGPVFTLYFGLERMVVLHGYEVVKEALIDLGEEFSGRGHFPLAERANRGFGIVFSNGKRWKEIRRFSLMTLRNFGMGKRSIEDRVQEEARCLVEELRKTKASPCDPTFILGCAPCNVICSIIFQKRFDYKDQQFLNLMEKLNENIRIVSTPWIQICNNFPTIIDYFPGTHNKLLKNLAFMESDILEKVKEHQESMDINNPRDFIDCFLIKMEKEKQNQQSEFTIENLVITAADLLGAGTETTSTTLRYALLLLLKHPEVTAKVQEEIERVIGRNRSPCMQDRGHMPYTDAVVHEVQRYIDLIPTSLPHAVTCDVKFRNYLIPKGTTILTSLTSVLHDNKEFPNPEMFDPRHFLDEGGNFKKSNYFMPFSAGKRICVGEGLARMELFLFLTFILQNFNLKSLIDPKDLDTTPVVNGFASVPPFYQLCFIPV

According to paper PMC6271976, “Inhibition of Human Cytochrome P450 Enzymes by Bacopa monnieri Standardized Extract and Constituents” (Molecules, 2014):

Target: CYP2C19 (Homo sapiens, UniProt P33261)
Assay: Luminescent P450-Glo recombinant human CYP2C19 inhibition assay
From the text: The inhibitory effects of B. monnieri standardized extract and the constituents bacoside A, bacoside A3, bacopaside II, bacopaside X, bacopasaponin C and bacopaside I on human cytochrome P450 enzyme were examined using an in vitro luminescent assay. The P450-Glo™ substrates are converted by CYP enzymes to a luciferin product that reacts with a Luciferin Detection Reagent to produce light. The amount of light produced is directly proportional to the CYP enzyme activity. The net signals from untreated (added with buffer or solvent) CYP reactions represent total CYP activity (without any inhibition = 100%). […] The test compounds that inhibit CYP enzymes caused a reduction in CYP activity and therefore generated less light/signal. […]
The enzyme assay was performed in 96-well white bottom flat plates (Nunc, Roskilde, Denmark). […] For the “untreated” (the values from these wells represent total CYP activity) and “minus-P450 control” wells (the values from these wells represent the CYP-independent background luminescence of the assay), 12.5 μL of vehicle (1% DMSO) was added. […] Before reading, the plate was incubated at room temperature for 20 min to stabilize the luminescent signal. The luminescence in all of the samples was measured using an Infinite F200 plate reader (Tecan, Männedorf, Switzerland).

Cc1c(C)c2c(c(C)c1O)CCC(C)(COc1ccc(CC3SC(=O)NC3=O)cc1)O2 (stereo not shown) [troglitazone, reference compound]
IC50: 17.7 µM
